US9862717B2 (Merck Patent GmbH, priority 2014, dated 2018)

Chains of the proteins cited; added tags and fusions are not shown.
UniProt P49336, whole entry: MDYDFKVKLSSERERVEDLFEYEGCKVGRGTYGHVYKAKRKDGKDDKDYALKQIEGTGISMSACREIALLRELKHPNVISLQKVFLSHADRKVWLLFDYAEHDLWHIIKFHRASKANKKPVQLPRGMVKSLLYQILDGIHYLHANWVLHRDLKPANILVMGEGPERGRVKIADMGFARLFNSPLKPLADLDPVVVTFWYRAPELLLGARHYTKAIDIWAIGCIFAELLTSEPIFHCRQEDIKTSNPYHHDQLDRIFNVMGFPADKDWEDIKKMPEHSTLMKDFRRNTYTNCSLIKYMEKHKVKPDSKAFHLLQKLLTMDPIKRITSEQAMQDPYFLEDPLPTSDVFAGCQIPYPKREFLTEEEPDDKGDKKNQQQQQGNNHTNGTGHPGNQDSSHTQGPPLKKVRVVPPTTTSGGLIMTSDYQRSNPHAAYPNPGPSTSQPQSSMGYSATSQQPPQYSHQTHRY
UniProt P24863, whole entry partner: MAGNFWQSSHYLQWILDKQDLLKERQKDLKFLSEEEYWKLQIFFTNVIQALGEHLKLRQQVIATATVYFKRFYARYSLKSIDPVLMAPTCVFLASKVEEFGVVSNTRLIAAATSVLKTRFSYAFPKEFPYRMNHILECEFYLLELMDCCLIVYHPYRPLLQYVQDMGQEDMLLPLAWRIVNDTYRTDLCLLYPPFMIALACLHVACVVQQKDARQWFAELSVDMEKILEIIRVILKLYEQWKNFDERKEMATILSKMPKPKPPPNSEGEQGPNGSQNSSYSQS

These compounds were tested against CDK8/CycC (Homo sapiens, UniProt P49336) (assay: FRET based Lanthascreen binding competition assay for CDK8 inhibitory activity). Conditions: CDK8 co-expressed with CycC; class symbols.
With `Cc1n[nH]c2cnc(C(=O)N3CCC[C@@H]3c3ccc(Cl)cc3)cc12` the pIC50 was 5.00 to 6.00.
For `Cc1n[nH]c2ncc(C(=O)N3C[C@@H](C)C[C@H]3c3ccc(C(F)(F)F)cc3)cc12`, the pIC50 was 6.00 to 7.00.
`Cc1n[nH]c2ncc(C(=O)N3CC[C@H](C)[C@@H]3c3ccc(C(F)(F)F)cc3)cc12` gave a pIC50 of 6.00 to 7.00.

pIC50: −log10 of the molar value.
